Consider 1 substance from US20220193384A1, “CUTANEOUS DEVICE FOR STORING AND RELEASING MOLECULES, AND CORRESPONDING METHOD” (priority 2019, published 2022).

The data set is described as follows: Skin permeation, static Franz diffusion cell, passive and electrothermally activated patch.
Setting [1] is: electrothermal activation 1 V, 10 min, stock solution 100 μg mL^−1 for loading, mouse skin.
The mark [2] stands for this setting: passive, no activation, stock solution 100 μg mL^−1 for loading, mouse skin.

Regarding insulin, the “Drug permeated under electrothermal activation at temperature below 50° C.” value (10 min activation, varied voltage/temperature, FIG. 8A) is on record as “an increased amount could be detected”. Under setting [1], the “Active, amount of drug permeated” value was 24 µg/mL and the Flux active is 2.60 μg cm^−2 h^−1. Also, under setting [2], the Flux passive is listed as 0 μg cm^−2 h^−1 and the “Passive, amount of drug permeated” value worked out at 0 µg/mL.
